# Test system: MCF7
# Experiment: Induction of degradation of ER-alpha Y537S mutant (unknown origin) expressed in human MCF7 cells at 0.1 to 1000 nM incubated for 24 hrs by western blot analysis
# Type: cell-based
# Conditions: dose 0.1-1000 nM
row,Compound,Activity
1,COc1cc(F)ccc1[C@H]1CSc2cc(O)ccc2[C@H]1c1ccc(OCCN2CC(CF)C2)cc1,Dose-dependent-effect
2,Oc1ccc2c(c1)SC[C@H](c1cc(F)c(F)cc1F)[C@@H]2c1ccc(OCCN2CC(CF)C2)cc1,Dose-dependent-effect

# — ChEMBL document CHEMBL6083291, “Discovery of Thiochroman Derivatives as Potent, Oral Selective Estrogen Receptor Degraders and Antagonists for the Treatment of Endocrine-Resistant Breast Cancer” (J Med Chem, 2024)
